Experimental data: patent US20230363382A1, “COMBINATIONS OF TRIAZINONE HERBICIDES WITH SAFENERS” (priority 2020, published 2023)
Where two headings read alike, the source gives them in different places.

System: Soybean crop
Conditions: Metribuzin 840 g ai/ha alone, soil spray

CSc1nnc(C(C)(C)C)c(=O)n1N [Metribuzin, 4-amino-6-tert-butyl-4,5-dihydro-3-methylthio-1,2,4-triazin-5-one]
% Phytotoxicity 14 DAA (Table 1 treatment set): 51.3% | % Phytotoxicity 14 DAA (Table 2 treatment set): 48.8% | % Phytotoxicity 28 DAA (Table 1 treatment set): 76.3% | % Phytotoxicity 28 DAA (Table 2 treatment set): 68.8% | % Phytotoxicity 35 DAA (35 DAA, Table 2 treatment set): 72.5%
